# Source: US12227521B2, “CGRP antagonist compounds” (Nxera Pharma UK Limited, priority 2019, dated 2025)
# By UniProt entry, the sequences of proteins in these tests, tags left out. Residues count along the entry.
# UniProt O60894, 27-148 limits assumed: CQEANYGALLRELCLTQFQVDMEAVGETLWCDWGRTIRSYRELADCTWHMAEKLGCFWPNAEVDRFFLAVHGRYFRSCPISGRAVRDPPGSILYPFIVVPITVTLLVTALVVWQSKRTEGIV
# UniProt Q16602, 23-461 limits assumed: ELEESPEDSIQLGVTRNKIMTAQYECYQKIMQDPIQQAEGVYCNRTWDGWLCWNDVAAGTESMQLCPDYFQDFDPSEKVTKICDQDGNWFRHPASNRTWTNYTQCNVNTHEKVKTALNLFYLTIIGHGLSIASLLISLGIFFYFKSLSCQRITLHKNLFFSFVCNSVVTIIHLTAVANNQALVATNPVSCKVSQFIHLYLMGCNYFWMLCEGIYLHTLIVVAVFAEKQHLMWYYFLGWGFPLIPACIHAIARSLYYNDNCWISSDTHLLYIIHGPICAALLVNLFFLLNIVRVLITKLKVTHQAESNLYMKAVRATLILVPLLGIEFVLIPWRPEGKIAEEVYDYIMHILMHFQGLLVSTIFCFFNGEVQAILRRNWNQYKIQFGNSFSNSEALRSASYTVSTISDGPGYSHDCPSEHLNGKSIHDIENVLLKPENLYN
# Biological target: human CGRP receptor (Homo sapiens, UniProt O60894+Q16602)
# Assay: cAMP functional assay (HTRF cAMP dynamic-2) in SK-N-MC cells
# Conditions: SK-N-MC cells endogenously expressing human CGRP receptor; challenge with EC80 human CGRP (0.3 nM); functional pKb converted from pIC50 by modified Cheng-Prussoff equation
# Protocol: cAMP production following receptor activation was determined using the Homogeneous Time-Resolved Fluorescence (HTRF) cAMP dynamic-2 assay (Cisbio, France). The human neuroblastoma cell line SK-N-MC endogenously expressing the human CGRP receptor was seeded at a density of 12,500 cells/well in solid walled 96 well half area plates (Costar, Catalog Number 3688, Corning Life Sciences, Germany). After 16 h incubation at 37° C. media was removed and cells were incubated at 37° C. for 30 min in serum free media containing 500 μM IBMX (Tocris, Abingdon, UK, Catalog Number 2845) and increasing concentrations of test antagonist. Following this cells were challenged with an EC80 concentration of human CGRP (0.3 nM) for a further 30 m at 37°) and then cAMP production was determined as manufacturer's instructions before plates were read on a PheraStar fluorescence plate reader (BMG LabTech, Germany). IC50 values were derived from the inhibition curve. The pIC50 values (where pIC50=−log10 IC50) were converted to a functional pKb value using a modified Cheng-Prussoff equation where Kd=agonist EC50 and L hot=agonist challenge concentration. The pKb values of certain compounds of the invention are detailed in Table 5.
row,Structure (SMILES),CGRP pKb
1,"O=C1NC2CC(c3ccccc3)CN(CCOCCOC/C=C/c3cnc4c(c3)[C@@]3(Cc5cc1cnc5C3)C(=O)N4)C2=O (single isomer, unassigned) [6-1 Isomer 1]",6.3
2,"CC1C(c2ccccc2)CC2NC(=O)c3cc4c(cn3)C[C@]3(C4)C(=O)Nc4ncc(cc43)/C=C/COCCOCCN1C2=O (single isomer, unassigned)",9.4
3,"CC1C(c2c(F)ccc(F)c2F)CC2NC(=O)c3cnc4c(c3)C[C@@]3(C4)C(=O)Nc4ncc(cc43)/C=C/CCCOCCCN1C2=O (single isomer, unassigned) [1-7 Isomer 2]",8.9
4,"CC1C(c2cccc(F)c2F)CC2NC(=O)c3cnc4c(c3)C[C@@]3(C4)C(=O)Nc4ncc(cc43)/C=C/COCCCCCN1C2=O (single isomer, unassigned) [4-1 Isomer 1]",11.9
5,"CC1C(c2ccccc2)CC2NC(=O)c3cnc4c(c3)C[C@@]3(C4)C(=O)Nc4ncc(cc43)/C=C/CN(C)CCN(C)CCN1C2=O (single isomer, unassigned)",10.0
6,"CC1C(c2ccccc2)CC2NC(=O)c3cnc4c(c3)C[C@@]3(C4)C(=O)Nc4ncc(cc43)/C=C/COCCCCCN1C2=O (single isomer, unassigned) [2-2 Isomer 2]",8.0
7,"CC1C(c2c(F)ccc(F)c2F)CC2NC(=O)c3cnc4c(c3)C[C@@]3(C4)C(=O)Nc4ncc(cc43)/C=C/CCOCCCCN1C2=O (single isomer, unassigned) [1-5 Isomer 1]",11.6
8,CC1C(c2c(F)ccc(F)c2F)CC2NC(=O)c3cc4c(cn3)C[C@]3(C4)C(=O)Nc4ncc(cc43)/C=C/COCCOCCN1C2=O (some centres unmarked),9.7
9,"O=C1NC2CC(c3ccccc3)CN(CCOCCOCCOCCCc3cnc4c(c3)[C@@]3(Cc5cc1cnc5C3)C(=O)N4)C2=O (single isomer, unassigned)",8.3
10,"CC1C(c2ccccc2)CC2NC(=O)c3ccc4c(c3)C[C@@]3(C4)C(=O)Nc4ncc(cc43)/C=C/COCCOCCN1C2=O (single isomer, unassigned) [9-1 Mixture (Isomer 1)]",7.9
11,"CC1C(c2ccccc2)CC2NC(=O)c3ccc4c(c3)C[C@@]3(C4)C(=O)Nc4ncc(cc43)/C=C/COCCOCCN1C2=O (single isomer, unassigned) [9-1 Mixture (Isomer 2)]",9.9
12,"C[C@@H]1[C@H](c2cc(F)cc(F)c2F)C[C@@H]2NC(=O)c3cnc4c(c3)C[C@@]3(C4)C(=O)Nc4ncc(cc43)/C=C/COCCCCCN1C2=O (single isomer, unassigned)",11.4
13,"CC1C(c2ccccc2)CC2NC(=O)c3cc4c(cn3)C[C@]3(C4)C(=O)Nc4ncc(cc43)/C=C/COCCCCCN1C2=O (single isomer, unassigned)",9.6
14,"CC1C(c2ccccc2)CC2NC(=O)c3cnc4c(c3)C[C@@]3(C4)C(=O)Nc4ncc(cc43)/C=C/COCCOCCN1C2=O (single isomer, unassigned)",9.9
15,"CC1C(c2ccccc2)CC2NC(=O)c3cnc4c(c3)C[C@@]3(C4)C(=O)Nc4ncc(cc43)/C=C/COCCCCCN1C2=O (single isomer, unassigned) [2-2 Isomer 1]",10.5
16,"CC1C(c2ccccc2)CC2NC(=O)c3cnc4c(c3)C[C@@]3(C4)C(=O)Nc4ncc(cc43)/C=C/CN(C)CCCCCN1C2=O (single isomer, unassigned)",10.6
17,"CC1C(c2c(F)ccc(F)c2F)CC2NC(=O)c3cnc4c(c3)C[C@@]3(C4)C(=O)Nc4ncc(cc43)/C=C/COCCCCCN1C2=O (single isomer, unassigned) [1-2 Isomer 1]",11.3
18,"CC1C(c2c(F)ccc(F)c2F)CC2NC(=O)c3cnc4c(c3)C[C@@]3(C4)C(=O)Nc4ncc(cc43)/C=C/COCCCC(F)(F)CN1C2=O (single isomer, unassigned) [1-8 Isomer 1]",11.3
19,"CC1C(c2c(F)ccc(F)c2F)CC2NC(=O)c3cnc4c(c3)C[C@@]3(C4)C(=O)Nc4ncc(cc43)/C=C/CCOCCOCCN1C2=O (single isomer, unassigned) [1-4 Isomer 2]",9.9
20,"O=C1NC2CC(c3c(F)ccc(F)c3F)CN(CCCCCOC/C=C/c3cnc4c(c3)[C@@]3(Cc5cc1cnc5C3)C(=O)N4)C2=O (single isomer, unassigned) [5-1 Isomer 2]",8.8
21,"CC1C(c2c(F)ccc(F)c2F)CC2NC(=O)c3cnc4c(c3)C[C@@]3(C4)C(=O)Nc4ncc(cc43)/C=C/COCCCCCN1C2=O (single isomer, unassigned) [1-2 Isomer 2]",9.3

row,Structure (SMILES),CGRP pKb
1,"O=C1NC2CC(c3ccccc3)CN(CCOCCOCCOC/C=C/c3cnc4c(c3)[C@@]3(Cc5cc1cnc5C3)C(=O)N4)C2=O (single isomer, unassigned) [6-2 Isomer 2]",8.9
2,"O=C1NC2CC(c3ccccc3)CN(CCOCCOC/C=C/c3cnc4c(c3)[C@]3(Cc5ccc1cc5C3)C(=O)N4)C2=O (single isomer, unassigned) [10-1 Isomer 1]",7.6
3,"CC1C(c2cccc(F)c2F)CC2NC(=O)c3cnc4c(c3)C[C@@]3(C4)C(=O)Nc4ncc(cc43)/C=C/COCCOCCN1C2=O (single isomer, unassigned) [4-2 Isomer 2]",9.2
4,"CC1C(c2c(F)ccc(F)c2F)CC2NC(=O)c3cnc4c(c3)C[C@@]3(C4)C(=O)Nc4ncc(cc43)/C=C/COCCOCCCN1C2=O (single isomer, unassigned) [1-3 Isomer 2]",9.3
5,"CC1C(c2ccccc2)CC2NC(=O)c3cnc4c(c3)C[C@@]3(C4)C(=O)Nc4ncc(cc43)/C=C/CCCCNCCN1C2=O (single isomer, unassigned)",10.7
6,"O=C1NC2CC(c3ccccc3)CN(CCOCCOC/C=C/c3cnc4c(c3)[C@@]3(Cc5cc1cnc5C3)C(=O)N4)C2=O (single isomer, unassigned) [6-1 Isomer 2]",8.5
7,"CC1C(c2ccccc2)CC2NC(=O)c3cnc4c(c3)C[C@@]3(C4)C(=O)Nc4ncc(cc43)/C=C/COCCNCCN1C2=O (single isomer, unassigned)",10.3
8,"CC1C(c2ccccc2)CC2NC(=O)c3cnc4c(c3)C[C@@]3(C4)C(=O)Nc4ncc(cc43)/C=C/CCCCN(C)CCN1C2=O (single isomer, unassigned)",10.2
9,"CC1C(c2c(F)ccc(F)c2F)CC2NC(=O)c3cnc4c(c3)C[C@@]3(C4)C(=O)Nc4ncc(cc43)/C=C/COCCCC(F)(F)CN1C2=O (single isomer, unassigned) [1-8 Isomer 2]",9.2
10,"CC1C(c2c(F)ccc(F)c2F)CC2NC(=O)c3cnc4c(c3)C[C@@]3(C4)C(=O)Nc4ncc(cc43)/C=C/COCCCOCCN1C2=O (single isomer, unassigned) [1-6 Isomer 2]",8.9
11,"CC1C(c2c(F)ccc(F)c2F)CC2NC(=O)c3cnc4c(c3)C[C@@]3(C4)C(=O)Nc4ncc(cc43)/C=C/COCCOCCCN1C2=O (single isomer, unassigned) [1-3 Isomer 1]",11.1
12,"CC1C(c2c(F)ccc(F)c2F)CC2NC(=O)c3cnc4c(c3)C[C@@]3(C4)C(=O)Nc4ncc(cc43)/C=C/CCCOCCCN1C2=O (single isomer, unassigned) [1-7 Isomer 3]",9.1
13,"O=C1NC2CC(c3ccccc3)CN(CCOCCOC/C=C/c3cnc4c(c3)[C@]3(Cc5ccc1cc5C3)C(=O)N4)C2=O (single isomer, unassigned) [10-1 Isomer 2]",6.9
14,"CC1C(c2c(F)ccc(F)c2F)CC2NC(=O)c3cnc4c(c3)C[C@@]3(C4)C(=O)Nc4ncc(cc43)/C=C/COCCCOCCN1C2=O (single isomer, unassigned) [1-6 Isomer 1]",11.1
15,"C[C@@H]1[C@H](c2c(F)ccc(F)c2F)C[C@@H]2NC(=O)c3cnc4c(c3)C[C@@]3(C4)C(=O)Nc4ncc(cc43)/C=C/CCCOCCCN1C2=O (single isomer, unassigned)",11.4
16,O=C1NC2CC(c3ccccc3)CN(CCOCCOCCOC/C=C/c3cnc4c(c3)[C@]3(Cc5ccc1cc5C3)C(=O)N4)C2=O (some centres unmarked),7.9
17,"CC1C(c2ccccc2)CC2NC(=O)c3cnc4c(c3)C[C@@]3(C4)C(=O)Nc4ncc(cc43)CCCN(C)CCCCCN1C2=O (single isomer, unassigned)",10.5
18,"CC1C(c2c(F)ccc(F)c2F)CC2NC(=O)c3cnc4c(c3)C[C@@]3(C4)C(=O)Nc4ncc(cc43)/C=C/CCOCCOCCN1C2=O (single isomer, unassigned) [1-4 Isomer 1]",11.1
19,"CC1C(c2cccc(F)c2F)CC2NC(=O)c3cnc4c(c3)C[C@@]3(C4)C(=O)Nc4ncc(cc43)/C=C/COCCOCCN1C2=O (single isomer, unassigned) [4-2 Isomer 1]",11.1
20,"CC1C(c2c(F)ccc(F)c2F)CC2NC(=O)c3cnc4c(c3)C[C@@]3(C4)C(=O)Nc4ncc(cc43)/C=C/CCOCCCCN1C2=O (single isomer, unassigned) [1-5 Isomer 2]",7.7
